# From patent US20200345268A1, “ISOTOPIC BIOMARKERS OF ORGANIC ACIDEMIAS” (The United States of America, as represented by the …, priority 2017, published 2020)
# Tested on: Mut^−/−; Tg^INS-MCK-Mut mice
# Assay: In vivo stable isotope oxidation studies (13CO2 enrichment in respiratory chambers after IP tracer)
# Conditions: N=5, time-point 30′
# Description: To further assess transgene function, the in vivo oxidative capacity of Mut^−/−; Tg^INS-MCK-Mut mice was measured through detecting metabolism of numerous 1-^13C labeled fatty acids to ^13CO2 via the Kreb's Cycle.
# The in vivo effects of hepatic Mut deficiency were also assessed by measuring the oxidation of 1-^13C-methionine (FIG. 1I) and 1-^13C-glycine (FIG. 1J). These labels reflect hepatic mitochondrial function and the activity of the glycine cleavage system, both known to be impaired in MMA patients.
# In Vivo Stable Isotope Oxidation Studies: Stable isotope studies were performed in 4 Mut−/−; Tg^INS-MCK-Mut and 4 control littermates. […] Aliquots of air were removed every 5-10 min, while CO2 was continuously monitored. ^13CO2 enrichment was measured by isotope ratio mass spectroscopy (Metabolic Solutions, Nashua, N.H.). […] Cumulative percentage of total isotopomer dose metabolized was subsequently calculated, using the formula: Percentage of dose metabolized=total ^13C excreted [mmol/dose (mmol)×100%]. […]
# These studies were conducted using N=5 mice with MMA (Mut^−/−; Tg^INS-MCK-Mut mutants) and N=5 sex matched littermates (controls). Each mouse was injected with the labels depicted in Table 3 and the oxidation rates and kinetics of ^13C/^12C CO2 enrichment were analyzed.
substance,measurement,setting,value
Sodium 1-^13C-Octanoate,"Cumulative % of total dose metabolized, Mutants, mean (SD)",Mut^−/−;Tg^INS-MCK-Mut mutants,44.71 (8.58) %
same,"Cumulative % of total dose metabolized, Controls, mean (SD)",sex matched littermate controls,31.94 (11.58) %
